Measured values from patent US20250195530A1, “POLQ INHIBITORS” (ASTRAZENECA AB, priority 2022, published 2025).

The chains behind the UniProt entries cited, without tags or fusion partners. Residues count along the entry.
UniProt O75417, 1780-2590: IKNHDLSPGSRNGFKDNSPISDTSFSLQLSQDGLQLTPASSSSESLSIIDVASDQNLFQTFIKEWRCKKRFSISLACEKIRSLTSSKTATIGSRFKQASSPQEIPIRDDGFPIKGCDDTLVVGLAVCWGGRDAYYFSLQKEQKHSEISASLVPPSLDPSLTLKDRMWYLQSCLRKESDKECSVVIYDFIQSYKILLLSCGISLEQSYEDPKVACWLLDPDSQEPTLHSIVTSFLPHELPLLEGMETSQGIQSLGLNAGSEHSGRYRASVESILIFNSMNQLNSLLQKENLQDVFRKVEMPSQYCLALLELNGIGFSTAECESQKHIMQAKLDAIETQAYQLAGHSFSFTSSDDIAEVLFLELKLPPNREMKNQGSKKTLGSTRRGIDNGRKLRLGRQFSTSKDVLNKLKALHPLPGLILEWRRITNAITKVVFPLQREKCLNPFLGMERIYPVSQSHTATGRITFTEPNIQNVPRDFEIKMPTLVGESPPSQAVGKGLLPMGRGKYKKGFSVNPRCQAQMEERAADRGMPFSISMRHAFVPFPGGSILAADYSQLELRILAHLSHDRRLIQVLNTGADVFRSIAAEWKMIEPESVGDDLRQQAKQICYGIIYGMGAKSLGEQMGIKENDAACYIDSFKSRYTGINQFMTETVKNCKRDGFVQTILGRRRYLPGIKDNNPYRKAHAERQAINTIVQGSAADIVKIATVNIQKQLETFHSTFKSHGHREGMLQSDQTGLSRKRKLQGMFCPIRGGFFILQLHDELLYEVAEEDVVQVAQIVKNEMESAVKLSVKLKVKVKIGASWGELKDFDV

Target: isolated polymerase domain (I1780-V2590) of DNA polymerase theta (Polθ) (Homo sapiens (Human), UniProt O75417)
Test: biochemical

SMILES | IC50 [nM]
Cn1cnnc1Cn1c(-c2ccc(OCCN3CCNCC3)cc2Cl)nc2c(OC3(C)CC3)ncnc21 [Example T150, 8-(2-chloro-4-(2-(piperazin-1-yl)ethoxy)phenyl)-9-((4-methyl-4H-1,2,4-triazol-3-yl)methyl)-6-(1-methylcyclopropoxy)-9H-purine] | ≥ 10000
Cc1ccnc(Cn2c(-c3ccc(C(=O)NCC(F)(F)F)cc3Cl)nc3c(OC4(C)CC4)ncnc32)c1 [Example T86, 3-chloro-4-(6-(1-methylcyclopropoxy)-9-((4-methylpyridin-2-yl)methyl)-9H-purin-8-yl)-N-(2,2,2-trifluoroethyl)benzamide] | 15.8
COc1ccc(Cl)cc1Cn1c(-c2cccc(OC[C@@H](C)CC(=O)O)c2Cl)nc2c(OC3(C)CC3)ncnc21 (single isomer, unassigned; isomer 1) [Example 50, 4-(2-Chloro-3-(9-(5-chloro-2-methoxybenzyl)-6-(1-methylcyclopropoxy)-9H-purin-8-yl)phenoxy)-3-methylbutanoic acid (isomer 1)] | 6.31
Cc1ccnc(Cn2c(-c3ccc(N4CCNC(=O)CC4)cc3Cl)nc3c(OC4(C)CC4)ncnc32)c1 [Example T339, 1-(3-chloro-4-(6-(1-methylcyclopropoxy)-9-((4-methylpyridin-2-yl)methyl)-9H-purin-8-yl)phenyl)-1,4-diazepan-5-one] | 6.31
Cc1ccnc(Cn2c(-c3ccc(OCC4(O)CC4)cc3Cl)nc3c(OC4(C)CC4)ncnc32)c1 [Example T197, 1-((3-chloro-4-(6-(1-methylcyclopropoxy)-9-((4-methylpyridin-2-yl)methyl)-9H-purin-8-yl)phenoxy)methyl)cyclopropan-1-ol] | 6.31
CC1(Oc2ncnc3c2nc(-c2ccc(CC(N)=O)cc2Cl)n3Cc2cccnc2C(F)(F)F)CC1 [Example T37, 2-(3-chloro-4-(6-(1-methylcyclopropoxy)-9-((2-(trifluoromethyl)pyridin-3-yl)methyl)-9H-purin-8-yl)phenyl)acetamide] | 251
Cc1ccnc(Cn2c(-c3ccc(C(=O)N4CCC[C@H](O)C4)cc3Cl)nc3c(OC4(C)CC4)ncnc32)c1 [Example T461, (S)-(3-chloro-4-(6-(1-methylcyclopropoxy)-9-((4-methylpyridin-2-yl)methyl)-9H-purin-8-yl)phenyl)(3-hydroxypiperidin-1-yl)methanone] | 63.1
CC(C)C(CCOc1ccc(-c2nc3c(OC4(C)CC4)ncnc3n2Cc2cccc(Cl)c2)c(Cl)c1)C(=O)O (racemic) [Example T566, 4-(3-chloro-4-(9-(3-chlorobenzyl)-6-(1-methylcyclopropoxy)-9H-purin-8-yl)phenoxy)-2-isopropylbutanoic acid] | 3.98
Cc1ccnc(Cn2c(-c3ccc(OCCCN(C)C)cc3Cl)nc3c(OC4(C)CC4)ncnc32)c1 [Example T385, 3-(3-chloro-4-(6-(1-methylcyclopropoxy)-9-((4-methylpyridin-2-yl)methyl)-9H-purin-8-yl)phenoxy)-N,N-dimethylpropan-1-amine] | 6.31
CC(CCOc1ccc(-c2nc3c(OC4(C)CC4)ncnc3n2Cc2cccc(F)c2F)c(Cl)c1)C(=O)O (single isomer, unassigned) [Example T261, 4-(3-chloro-4-(9-(2,3-difluorobenzyl)-6-(1-methylcyclopropoxy)-9H-purin-8-yl)phenoxy)-2-methylbutanoic acid] | 10
Cc1ccnc(Cn2c(-c3ccc(N4CCCC4=O)cc3Cl)nc3c(OC4(C)CC4)ncnc32)c1 [Example T171, 1-(3-chloro-4-(6-(1-methylcyclopropoxy)-9-((4-methylpyridin-2-yl)methyl)-9H-purin-8-yl)phenyl)pyrrolidin-2-one] | 6.31
CCC(C)c1ccc(-c2nc3c(OC4(C)CC4)ncnc3n2Cc2cc(C)ccn2)c(Cl)c1 (racemic) [Example T232, 8-(4-(sec-butyl)-2-chlorophenyl)-6-(1-methylcyclopropoxy)-9-((4-methylpyridin-2-yl)methyl)-9H-purine] | 12.6
Cc1ccnc(Cn2c(-c3ccc(OCC(=O)N(C)CCO)cc3Cl)nc3c(OC4(C)CC4)ncnc32)c1 [Example T374, 2-(3-chloro-4-(6-(1-methylcyclopropoxy)-9-((4-methylpyridin-2-yl)methyl)-9H-purin-8-yl)phenoxy)-N-(2-hydroxyethyl)-N-methylacetamide] | 7.94
CC(CCOc1ccc(-c2nc3c(OC4(C)CC4)ncnc3n2Cc2cc(F)cc(Cl)c2)c(Cl)c1)C(=O)O (single isomer, unassigned) [Example T272, 4-(3-chloro-4-(9-(3-chloro-5-fluorobenzyl)-6-(1-methylcyclopropoxy)-9H-purin-8-yl)phenoxy)-2-methylbutanoic acid] | 3.98
FC(F)(F)C1(Oc2ncnc3c2nc(-c2ccc(OCCN4CCNCC4)cc2Cl)n3Cc2ccccc2)COC1 [Example T424, 9-benzyl-8-(2-chloro-4-(2-(piperazin-1-yl)ethoxy)phenyl)-6-((3-(trifluoromethyl)oxetan-3-yl)oxy)-9H-purine] | 39.8
CC1(Oc2ncnc3c2nc(-c2ccc(OCCN4CCC[C@H]4C(=O)O)cc2Cl)n3Cc2cccc(Cl)c2)CC1 [Example T551, (2-(3-chloro-4-(9-(3-chlorobenzyl)-6-(1-methylcyclopropoxy)-9H-purin-8-yl)phenoxy)ethyl)-L-proline] | 6.31

SMILES | IC50 [nM]
Cc1ccnc(Cn2c(-c3ccc(C(=O)NC4(C)COC4)cc3Cl)nc3c(OC4(C)CC4)ncnc32)c1 [Example T317, 3-chloro-4-(6-(1-methylcyclopropoxy)-9-((4-methylpyridin-2-yl)methyl)-9H-purin-8-yl)-N-(3-methyloxetan-3-yl)benzamide] | 20
CC1(Oc2ncnc3c2nc(-c2ccc(OCCN4CCN(C(=O)C(F)(F)F)CC4)cc2Cl)n3Cc2nnco2)CC1 [Example T192, 1-(4-(2-(4-(9-((1,3,4-oxadiazol-2-yl)methyl)-6-(1-methylcyclopropoxy)-9H-purin-8-yl)-3-chlorophenoxy)ethyl)piperazin-1-yl)-2,2,2-trifluoroethan-1-one] | 794
Cc1ccnc(Cn2c(-c3ccc(CC(=O)N4C5CNCC4C5)cc3Cl)nc3c(OC4(C)CC4)ncnc32)c1 [Example T557, 1-(3,6-diazabicyclo[3.1.1]heptan-6-yl)-2-(3-chloro-4-(6-(1-methylcyclopropoxy)-9-((4-methylpyridin-2-yl)methyl)-9H-purin-8-yl)phenyl)ethan-1-one] | 3.16
Cc1ccnc(Cn2c(-c3ccc(C(=O)N4CCCNCC4)cc3Cl)nc3c(OC4(C)CC4)ncnc32)c1 [Example T496, (3-chloro-4-(6-(1-methylcyclopropoxy)-9-((4-methylpyridin-2-yl)methyl)-9H-purin-8-yl)phenyl)(1,4-diazepan-1-yl)methanone] | 12.6
CC1(Oc2ncnc3c2nc(-c2ccc(OCCCC(C)(C)C(=O)O)cc2Cl)n3Cc2cccc(Cl)c2)CC1 [Example T563, 5-(3-chloro-4-(9-(3-chlorobenzyl)-6-(1-methylcyclopropoxy)-9H-purin-8-yl)phenoxy)-2,2-dimethylpentanoic acid] | 3.16
CC1(Oc2ncnc3c2nc(-c2cccc(OCCCCOCC(=O)O)c2Cl)n3Cc2cccc(Cl)c2)CC1 [Example T448, 2-(4-(2-chloro-3-(9-(3-chlorobenzyl)-6-(1-methylcyclopropoxy)-9H-purin-8-yl)phenoxy)butoxy)acetic acid] | 7.94
Cc1cnc(Cn2c(-c3cccc(OCCN(C)C)c3Cl)nc3c(OC4(C)CC4)ncnc32)s1 [Example T73, 2-(2-chloro-3-(6-(1-methylcyclopropoxy)-9-((5-methylthiazol-2-yl)methyl)-9H-purin-8-yl)phenoxy)-N,N-dimethylethan-1-amine] | 10
Cc1ccnc(Cn2c(-c3ccc(OCCNC(=O)[C@@H](C)O)cc3Cl)nc3c(OC4(C)CC4)ncnc32)c1 [Example T375, (R)-N-(2-(3-chloro-4-(6-(1-methylcyclopropoxy)-9-((4-methylpyridin-2-yl)methyl)-9H-purin-8-yl)phenoxy)ethyl)-2-hydroxypropanamide] | 5.01
Cc1ccnc(Cn2c(-c3ccc(S(N)(=O)=O)cc3Cl)nc3c(OC4(C)CC4)ncnc32)c1 [Example T9, 3-chloro-4-(6-(1-methylcyclopropoxy)-9-((4-methylpyridin-2-yl)methyl)-9H-purin-8-yl)benzenesulfonamide] | 10
Cc1cccc(Cn2c(-c3ccc(CC(N)=O)cc3Cl)nc3c(OC4(C)CC4)ncnc32)c1 [Example T99, 2-(3-chloro-4-(9-(3-methylbenzyl)-6-(1-methylcyclopropoxy)-9H-purin-8-yl)phenyl)acetamide] | 5.01
CCc1nnc(Cn2c(-c3ccc(CC(N)=O)cc3Cl)nc3c(OC4(C)CC4)ncnc32)o1 [Example T10, 2-(3-chloro-4-(9-((5-ethyl-1,3,4-oxadiazol-2-yl)methyl)-6-(1-methylcyclopropoxy)-9H-purin-8-yl)phenyl)acetamide] | 2000
CNC(=O)COc1cccc(-c2nc3c(OC4(C)CC4)ncnc3n2Cc2cc(C)ccn2)c1Cl [Example T120, 2-(2-chloro-3-(6-(1-methylcyclopropoxy)-9-((4-methylpyridin-2-yl)methyl)-9H-purin-8-yl)phenoxy)-N-methylacetamide] | 6.31
CC1(Oc2ncnc3c2nc(-c2ccc(OCCCOCCC(=O)O)cc2Cl)n3Cc2cccc(Cl)c2)CC1 [Example T449, 3-(3-(3-chloro-4-(9-(3-chlorobenzyl)-6-(1-methylcyclopropoxy)-9H-purin-8-yl)phenoxy)propoxy)propanoic acid] | 3.16
Cc1ccnc(Cn2c(-c3ccc(C(=O)N4CC[C@H](N(C)C)C4)cc3Cl)nc3c(OC4(C)CC4)ncnc32)c1 [Example T588, (S)-(3-chloro-4-(6-(1-methylcyclopropoxy)-9-((4-methylpyridin-2-yl)methyl)-9H-purin-8-yl)phenyl)(3-(dimethylamino)pyrrolidin-1-yl)methanone] | 5.01
Cc1ncsc1CCn1c(-c2ccc(CC(N)=O)cc2Cl)nc2c(OC3(C)CC3)ncnc21 [Example T26, 2-(3-chloro-4-(6-(1-methylcyclopropoxy)-9-(2-(4-methylthiazol-5-yl)ethyl)-9H-purin-8-yl)phenyl)acetamide] | 5010
